Where two headings read alike, the source gives them in different places.
Columns and labels:
[1] = system: recombinant cynomolgus FRα protein; assay: Recombinant FRα-binding by ELISA (cynomolgus); conditions: FIG. 4B
Description: Sandwich ELISA assays were performed using 96-well high-binding ELISA plates (Corning Inc., New York, NY, USA, Cat #3590). Plates were coated using 100 μL/well of recombinant human FRα protein (Sino Biological cat #11241-H08H); recombinant cynomolgus FRα protein (Sino Biological cat #90950-C08H); recombinant rat FRα protein (Sino Biological cat #81073-R08H) or recombinant mouse FRα protein (Sino Biological cat #50573-M08H) in PBS (pH 7.4) at 2 μg/mL and incubated overnight at 4° C. After 2 washes with PBS-T (PBS+0.05% Tween-20), the plates were blocked with 200 μL/well of incubation buffer (PBS-T+0.1% BSA) for 1 h at room temperature. The plates were washed 4 times with PBS-T, and 100 μL of a threefold dilution series of tested compound (antibody or antibody-drug conjugate) was added. Then, the plates were incubated for 2 h at room temperature in the dark. After 5 washes with PBS-T, plates were incubated 1 h at room temperature with 100 μL/well of a goat anti-human IgG (H+L) HRP conjugated antibody (Jackson Immunoresearch cat #109-035-088), previously diluted 1:250000 in incubation buffer. After 5 washes with PBS-T, TMB substrate solution (Thermo-Fisher cat #N301) was added. Peroxidase activity was stopped with 0.18M H2SO4 and absorbance was read at 450 nm (reference wavelength 650 nm) using a Thermo Scientific MultiSkan EX microplate reader. […]

[2] = FIGURE 19
Description: Table printed on a drawing sheet, FIGURE 19
The patent's description of the figure: FIG. 19 represents in vivo rat pharmacokinetic assessment of total mAb, total ADC and free exatecan sub-components of conjugates, according to example 14.
First reader's note: Pharmacokinetic parameters refer to the Total ADC analyte of each conjugate.

[3] = Dose-range-finding toxicology study in cynomolgus monkeys; assay type: in vivo, cynomolgus monkeys (Macaca fascicularis)
Description: A nonhuman primate dose-range-finding toxicology study was conducted using purpose-bred native female cynomolgus monkeys (Macaca fascicularis) of Vietnam origin. The study was performed at Cynbiose SAS (Marcy-I'Étoile, France). The study protocol was approved by the testing facility Institutional Animal Care and Use Committee. […] Two female monkeys/group were used in the study (total of 8 animals). Following terminal sacrifice 5 days after the last administration, gross necropsy, measurement of organ weights and histopathologic examinations were conducted. Parameters evaluated during the study included mortality, clinical signs (including estimation of food consumption), body weights, ophthalmology examinations, body temperature, hematology, coagulation, clinical chemistry, urinalysis, organ weights, and macroscopic and microscopic examinations of an extensive list of tissues. ADC formulation buffer was 20 mM histidine pH 6.0, 4% (w/v) sucrose and 75 mM NaCl. Vehicle was saline 0.9%.

[4] = system: PA-1 cancer model; assay: In vivo efficacy, PA-1 xenograft; set-up: species or system SCID mice; conditions: IV once at 3 mg/kg (FIG. 14)
Description: Four to five-week-old female CB-17 severe combined immunodeficient (SCID) mice are obtained and quarantined for 7 days prior to study initiation. Mice are inoculated subcutaneously with cells (5-10×10^6 cells per mouse) resuspended in PBS (OV-90, SW-620, KB, BT-474 cell lines) or 50% BD Matrigel (Corning®) in PBS (PA-1, IGROV-1, OVCAR-3, NCI-H2110 cell lines). When average tumor volume reached about 120-150 mm^3 mice are randomized (typically 7 mice per group) and treated by a single (unless stated otherwise) intravenous injection of PBS (negative control) or investigated antibody-drug conjugate. Tumor volumes are measured every 3-5 days using a caliper device (length×width) and calculated using the following formula V=4/3×π×R3, where R represents the radius. Mice are sacrificed when the tumor volume exceeded 1500 mm^3 or in case of ulceration of the tumor.
Four to five-week-old female CB-17 severe combined immunodeficient (SCID) mice were obtained from Janvier labs (Le Genest-Saint-Isle, France) and quarantined for 7 days prior to study initiation. […] Tumor volumes were measured every 3-5 days using a caliper device (length×width) and calculated using the following formula V=4/3×π×R^3, where R represents the radius. […]

[5] = rat, in vivo, iv, 5 mg/kg
[6] = mouse, in vivo

B1: F-LALA-VA-EXA (conjugate)
heavy: EVQLVESGGGVVQPGRSLRLSCSASGFTFSGYGLSWVRQAPGKGLEWVAMISSGGSYTYYADSVKGRFAISRDNAKNTLFLQMDSLRPEDTGVYFCARHGDDPAWFAYWGQGTPVTVSSASTKGPSVFPLAPSSKSTSGGTAALGCLVKDYFPEPVTVSWNSGALTSGVHTFPAVLQSSGLYSLSSVVTVPSSSLGTQTYICNVNHKPSNTKVDKKV[gap - human IgG1 Fc with changes]
light: DIQLTQSPSSLSASVGDRVTITCSVSSSISSNNLHWYQQKPGKAPKPWIYGTSNLASGVPSRFSGSGSGTDYTFTISSLQPEDIATYYCQQWSSYPYMYTFGQGTKVEIKRTVAAPSVFIFPPSDEQLKSGTASVVCLLNNFYPREAKVQWKVDNALQSGNSQESVTEQDSKDSTYSLSSTLTLSKADYEKHKVYACEVTHQGLSSPVTKSFNRGEC
modifications: N-methyl
[1]
  cynomolgus recombinant FRα binding (ELISA): binds equally
[2]
  AUC0-inf: 3143 µM/day
  Clearance rate: 5.5 mL/day/kg
  Vss (steady-state Vd): 130 mL/kg
  half-life: 15.2 days
[3]; IV 60 mg/kg
  tolerability in cynomolgus monkeys at 60 mg/kg: not tolerated because of acute kidney failure in one of the two animals
[3]; IV 30, 40, 50 or 60 mg/kg, 3 doses at three-week interval
  tolerability in cynomolgus monkeys: well tolerated
[3]; IV, three-week interval, thrice (FIG. 22)
  estimated highest non-severely toxic dose (HNSTD): 50 mg/kg
[4]
  efficacy, PA-1 xenograft: outperformed M-SORAV
[5]
  clearance rates: slow clearance rates
  half-life: 13 to 15 days
[6]
  dose dependent adverse systemic or local effects: did not cause any dose dependent adverse systemic or local effects
  weight of the thymus and spleen at final necropsy compared to the control group: slight decrease in the weight of the thymus and spleen
